System: OC43
Experiment: Adsorption assay (OC43, Vero-76)
Details: virus and cells incubated at 4 °C in presence of compound

Dextran sulphate [reference compound]
block of OC43 viral binding (adsorption): efficiently able to block OC43 viral binding
